Results on 1 compound are retold here after publication PMC4436800, “Identification, functional characterization, and pharmacological profile of a serotonin type-2b receptor in the medically important insect, Rhodnius prolixus” (Frontiers in Neuroscience, 2015).

Structures are written as SMILES.

The target in this experiment is T1, Rhopr5HTR2b (R. prolixus serotonin type 2b receptor) (Rhodnius prolixus, UniProt A0A0H4TRR1).
T1 construct: gene 5HT-R2; complete open reading frame (Genbank KP325472) in pcDNA3.1, transiently expressed in CHOK1-aeq cells
T1 sequence (A0A0H4TRR1 1-703): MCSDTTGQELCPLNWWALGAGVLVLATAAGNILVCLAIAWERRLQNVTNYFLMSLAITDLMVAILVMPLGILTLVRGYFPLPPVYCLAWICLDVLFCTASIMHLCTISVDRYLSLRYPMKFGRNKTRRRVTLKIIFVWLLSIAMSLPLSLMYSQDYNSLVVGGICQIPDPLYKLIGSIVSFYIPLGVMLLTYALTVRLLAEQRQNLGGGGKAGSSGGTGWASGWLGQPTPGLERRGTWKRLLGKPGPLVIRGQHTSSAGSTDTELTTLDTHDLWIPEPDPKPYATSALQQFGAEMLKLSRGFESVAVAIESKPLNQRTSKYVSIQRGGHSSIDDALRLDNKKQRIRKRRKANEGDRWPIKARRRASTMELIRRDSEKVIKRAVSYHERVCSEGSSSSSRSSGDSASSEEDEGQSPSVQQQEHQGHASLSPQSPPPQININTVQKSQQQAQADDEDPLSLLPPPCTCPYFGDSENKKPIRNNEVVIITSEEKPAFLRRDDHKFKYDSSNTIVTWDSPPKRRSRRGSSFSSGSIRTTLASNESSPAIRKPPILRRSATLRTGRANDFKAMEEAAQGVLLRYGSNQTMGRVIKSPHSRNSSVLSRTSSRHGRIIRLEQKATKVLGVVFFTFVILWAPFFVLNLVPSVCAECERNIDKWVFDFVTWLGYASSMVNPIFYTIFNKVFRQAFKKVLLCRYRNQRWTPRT
As to the kind of experiment: aequorin calcium luminescence assay, agonist dose-response in transfected CHOK1-aeq cells. The class given is cell-based.

One may read the EC50 as the concentration needed to bring the measured effect to its halfway point. In the case of `NCCc1c[nH]c2ccc(O)cc12` [serotonin], the EC50 came to 201 nM.
